Values quoted from earlier work as cited in patent US20060276412A1, “METHODS AND COMPOSITIONS FOR MANAGING PSYCHOTIC DISORDERS” (priority 2005, published 2006).

Tests used:
[1] = at one year, treated patients, one study; cited from earlier work
[2] = system: cholinergic muscarinic receptors; conditions: cited from earlier work

## Cc1cc2c(s1)Nc1ccccc1N=C2N1CCN(C)CC1 [olanzapine]
[1]
  average weight gain: 12 kg
[2]
  affinity for cholinergic muscarinic receptors: lower affinity
